# Results as given in EP0302824A2 (priority 1987, dated 1989).
# Tested on: larvae of the banded cucumber beetle (Diabrotica balteata)
# Assay: Seed applied insecticides against banded cucumber beetle larvae on potted maize
# Format: in vivo
# Settings: maize G 4733, 10 g/kg seed; for Scores of damage caused by D. balteata larvae: 0-6 scale
# [1] = Association Polymer, 94% Sand, plant age 3 w
# [2] = Association Polymer, 94% Sand, plant age 4 w
# [3] = Association Polymer, 98% Sand, plant age 3 w
# [4] = Association Polymer, 98% Sand, plant age 4 w
# [5] = Association Polymer, Stein Earth, plant age 3 w
# [6] = Association Polymer, Stein Earth, plant age 4 w
# [7] = PVAc/PVAl, 94% Sand, plant age 3 w
# [8] = PVAc/PVAl, 94% Sand, plant age 4 w
# [9] = PVAc/PVAl, 98% Sand, plant age 3 w
# [10] = PVAc/PVAl, 98% Sand, plant age 4 w
# [11] = PVAc/PVAl, Stein Earth, plant age 3 w
# [12] = PVAc/PVAl, Stein Earth, plant age 4 w
compound,measurement,setting,value
CCOP(=S)(CC)Sc1ccccc1 (stereo not drawn),Scores of damage caused by D. balteata larvae,[1],1.4
same,Scores of damage caused by D. balteata larvae,[2],3.2
same,Scores of damage caused by D. balteata larvae,[3],2.0
same,Scores of damage caused by D. balteata larvae,[4],1.0
same,Scores of damage caused by D. balteata larvae,[5],3.0
same,Scores of damage caused by D. balteata larvae,[6],2.6
same,Scores of damage caused by D. balteata larvae,[7],4.3
same,Scores of damage caused by D. balteata larvae,[8],2.8
same,Scores of damage caused by D. balteata larvae,[9],3.2
same,Scores of damage caused by D. balteata larvae,[10],2.5
same,Scores of damage caused by D. balteata larvae,[11],3.6
same,Scores of damage caused by D. balteata larvae,[12],3.8
same,Percent survival of D. balteata larvae,[1],2%
same,Percent survival of D. balteata larvae,[2],12%
same,Percent survival of D. balteata larvae,[3],0%
same,Percent survival of D. balteata larvae,[4],4%
same,Percent survival of D. balteata larvae,[5],3%
same,Percent survival of D. balteata larvae,[6],0%
same,Percent survival of D. balteata larvae,[7],3%
same,Percent survival of D. balteata larvae,[8],18%
same,Percent survival of D. balteata larvae,[9],1%
same,Percent survival of D. balteata larvae,[10],2%
same,Percent survival of D. balteata larvae,[11],6%
same,Percent survival of D. balteata larvae,[12],5%
